The target of test [1] is T1, Kappa-type opioid receptor (Homo sapiens, UniProt P41145). Put plainly: Agonist activity at human kappa opioid receptor transfected in CHO cells assessed as stimulation of [35S]GTPgammaS binding by liquid scintillation counting analysis. A general note: GTPγS is a poorly hydrolysed GTP analogue; its binding reports G protein activation.
Test [2] deals with T2, Mu-type opioid receptor (Homo sapiens, UniProt P35372). The test can be described thus: Agonist activity at human mu opioid receptor transfected in CHO cells assessed as stimulation of [35S]GTPgammaS binding by liquid scintillation counting analysis.
The target of test [3] is T3, Nociceptin receptor (Homo sapiens, UniProt P41146). Put plainly: Agonist activity at human nociceptin receptor transfected in CHO cells assessed as stimulation of [35S]GTPgammaS binding by liquid scintillation counting analysis.
Test [4] concerns the target T1, Kappa-type opioid receptor. The test can be described thus: Displacement of [3H] U69593 from human kappa opioid receptor transfected in CHO cells. A general note: In a radioligand displacement assay an active substance lowers the binding of a labelled ligand.
Test [5] addresses T2, Mu-type opioid receptor. The test can be described thus: Displacement of [3H]DAMGO from human mu opioid receptor transfected in CHO cells.
Test [6] addresses T3, Nociceptin receptor. The test can be described thus: Displacement of [3H] N/OFQ from human nociceptin receptor transfected in CHO cells.

Protein sequences, listed by entry. Tags and fused reporters are not part of them.
UniProt P41145, whole entry: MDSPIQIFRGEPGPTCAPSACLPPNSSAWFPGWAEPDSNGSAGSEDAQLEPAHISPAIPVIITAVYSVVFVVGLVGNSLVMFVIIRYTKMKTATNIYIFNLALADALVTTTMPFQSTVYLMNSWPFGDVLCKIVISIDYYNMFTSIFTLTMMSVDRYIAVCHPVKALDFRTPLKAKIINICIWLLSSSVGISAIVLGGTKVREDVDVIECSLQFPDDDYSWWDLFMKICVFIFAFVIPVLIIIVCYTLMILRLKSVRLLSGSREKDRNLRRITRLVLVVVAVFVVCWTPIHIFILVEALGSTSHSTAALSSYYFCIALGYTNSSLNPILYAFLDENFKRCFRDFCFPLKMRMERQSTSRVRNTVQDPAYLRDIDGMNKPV
UniProt P35372, whole entry: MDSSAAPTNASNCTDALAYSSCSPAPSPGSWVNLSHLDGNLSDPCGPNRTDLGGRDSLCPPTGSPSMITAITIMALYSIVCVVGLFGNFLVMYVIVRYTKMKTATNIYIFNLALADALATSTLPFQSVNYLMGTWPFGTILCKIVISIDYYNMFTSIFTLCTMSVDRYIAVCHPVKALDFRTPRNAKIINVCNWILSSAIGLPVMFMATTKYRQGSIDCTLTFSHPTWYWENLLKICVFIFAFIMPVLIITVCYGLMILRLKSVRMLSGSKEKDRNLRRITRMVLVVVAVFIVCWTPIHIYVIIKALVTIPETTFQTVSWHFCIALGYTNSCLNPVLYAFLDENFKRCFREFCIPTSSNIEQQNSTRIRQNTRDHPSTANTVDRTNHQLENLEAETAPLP
UniProt P41146, whole entry: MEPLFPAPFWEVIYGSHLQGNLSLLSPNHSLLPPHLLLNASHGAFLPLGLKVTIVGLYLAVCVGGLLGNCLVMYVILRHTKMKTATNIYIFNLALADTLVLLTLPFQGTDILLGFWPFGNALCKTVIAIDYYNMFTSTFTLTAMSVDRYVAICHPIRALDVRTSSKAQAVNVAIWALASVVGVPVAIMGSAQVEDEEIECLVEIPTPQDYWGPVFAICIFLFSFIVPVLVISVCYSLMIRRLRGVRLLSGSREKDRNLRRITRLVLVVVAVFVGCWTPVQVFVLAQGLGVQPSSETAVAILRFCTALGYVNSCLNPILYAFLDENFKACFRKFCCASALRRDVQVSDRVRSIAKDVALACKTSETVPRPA

These results are taken from ChEMBL document CHEMBL2385080, “Designing bifunctional NOP receptor-mu opioid receptor ligands from NOP receptor-selective scaffolds. Part I” (2013).

Turning to `CC(c1ccccc1)N1CCC(N2C(=O)Cc3ccccc32)CC1` (configuration not stated), in test [1], the EC50 was 423 nM.

With `CCC[C@H]1CC[C@@H](N2CCC(N3C(=O)Cc4ccccc43)CC2)CC1`, the EC50 on Mu-type opioid receptor [2] came out at 595 nM; on Nociceptin receptor [3], 107 nM. For the same molecule, the Ki in test [4] worked out at 190 nM; on Mu-type opioid receptor [5], 5.39 nM; on Nociceptin receptor [6], 7.63 nM.

Turning to `CC1C(=O)N(C2CCN([C@H]3CC[C@@H](C(C)C)CC3)CC2)c2ccccc21` (some centres not stated), the EC50 on Mu-type opioid receptor [2] was 120 nM; on Nociceptin receptor [3], 54.9 nM; in test [1], < 10000 nM. Moreover, the Ki was found to be 41.8 nM in test [4], 3.62 nM on Mu-type opioid receptor [5] and 6.53 nM at Nociceptin receptor [6].

For `CC1CC(=O)N(C2CCN(C3CCCCCCC3)CC2)c2ccccc21` (configuration not stated), the 50% effective concentration (EC50) was 58 nM on Mu-type opioid receptor [2], 94.7 nM on Nociceptin receptor [3] and < 10000 nM in test [1]. The inhibition constant (Ki) in test [4] was found to be 27.7 nM; on Mu-type opioid receptor [5], 23.3 nM; at Nociceptin receptor [6], 40.3 nM.

Take `CC(C)C1CCC(N2CCC(N3C(=O)Cc4ccccc43)CC2)CC1` (configuration not stated): in test [1], the EC50 was < 10000 nM.

In the case of `CC(C1CCCCC1)N1CCC(N2C(=O)Cc3ccccc32)CC1` (configuration not stated), the EC50 in test [1] turned out to be 873 nM.

Consider `O=C1Cc2ccccc2N1C1CCN(C2CCCCCCC2)CC1`, for which, on Nociceptin receptor [3], the EC50 was 20.8 nM.

As for `CC1C(=O)N(C2CCN(C3CCCCCCC3)CC2)c2ccccc21` (configuration not stated), the EC50 on Mu-type opioid receptor [2] was 94 nM; on Nociceptin receptor [3], 30.2 nM; in test [1], < 10000 nM. In addition, the Ki was determined as 39.2 nM in test [4], 10.5 nM on Mu-type opioid receptor [5] and 12.7 nM at Nociceptin receptor [6].

On to `CCC1C(=O)N(C2CCN(C3CCCCCCC3)CC2)c2ccccc21` (configuration not stated), for which the EC50 at Mu-type opioid receptor [2] was 37.3 nM; on Nociceptin receptor [3] it was 6.8 nM; in test [1] it was < 10000 nM. In addition, the results for the Ki (in test [4]; on Mu-type opioid receptor [5]; on Nociceptin receptor [6]) were 43.4 nM, 16.3 nM and 8.67 nM, respectively.

Turning to `CCC(C)(C)[C@H]1CC[C@@H](N2CCC(N3C(=O)Cc4ccccc43)CC2)CC1`, the EC50 was found to be 189 nM at Mu-type opioid receptor [2] and 83 nM on Nociceptin receptor [3]. Moreover, the inhibition constant (Ki) in test [4] was 160 nM; on Mu-type opioid receptor [5], 16.1 nM; at Nociceptin receptor [6], 15.3 nM.

On to `CC(C)C1CCC(N2CCC(N3C(=O)CCc4ccccc43)CC2)CC1` (configuration not stated), for which the EC50 at Mu-type opioid receptor [2] was 68 nM; at Nociceptin receptor [3], 127 nM; in test [1], < 10000 nM. The Ki in test [4] was 70 nM; at Mu-type opioid receptor [5] it was 7.62 nM; on Nociceptin receptor [6], 20.4 nM.

Regarding `CCC1C(=O)N(C2CCN([C@H]3CC[C@@H](C(C)C)CC3)CC2)c2ccccc21` (some centres not stated), the results for the EC50 (on Mu-type opioid receptor [2]; at Nociceptin receptor [3]; in test [1]) were 4.7 nM, 8.5 nM and < 10000 nM, respectively. The results for the Ki (in test [4]; at Mu-type opioid receptor [5]; on Nociceptin receptor [6]) were 82.4 nM, 1.07 nM and 5.22 nM, respectively.

In the case of `O=C1Cc2ccccc2N1C1CCN(C2C3CCCC2CCC3)CC1` (configuration not stated), the EC50 at Mu-type opioid receptor [2] was 29 nM; in test [1], < 10000 nM.

For orientation: EC50 means the concentration giving half of the maximal effect. As usually defined, the Ki is a measure of affinity in units of concentration, obtained from inhibition or displacement. Lower therefore signals higher affinity.
